# From publication PMC9107402, “Evaluation of CYP2C19 activity using microdosed oral omeprazole in humans” (European Journal of Clinical Pharmacology, 2022)
# Test system: CYP2C19
# Settings: human, in vivo, po, 100 ug
# Description: This was an open-label clinical trial with fixed sequence design consisting of a total of seven inpatient study days and eight short visits for each participant.
# The CYP2C19 perpetrator fluconazole (Fluconazol HEXAL® 200 mg, HEXAL) was given for 5 days in oral doses of 400 mg on day 1 and 200 mg on days 2 to 5. […] A diary was used to ensure correct intake of fluconazole and rifampicin at home.
# Blood samples were centrifuged for 10 min at 2500 g and 4 °C, and separated plasma was distributed into 4 aliquots, each stored at − 20 °C until analysis.
# The statistical analysis was performed using Prism 8.4 (GraphPad Software Inc., La Jolla, CA, USA).
smiles,measurement,value
COc1ccc2[nH]c([S+]([O-])Cc3ncc(C)c(OC)c3C)nc2c1 (stereo not shown) [omeprazole],VSS,26.1 L
